{
  "sequences": {"note": "Protein sequences, listed by entry. Tags and fused reporters are not part of them. Residues count along the entry.", "UniProt P06276, 29-602": "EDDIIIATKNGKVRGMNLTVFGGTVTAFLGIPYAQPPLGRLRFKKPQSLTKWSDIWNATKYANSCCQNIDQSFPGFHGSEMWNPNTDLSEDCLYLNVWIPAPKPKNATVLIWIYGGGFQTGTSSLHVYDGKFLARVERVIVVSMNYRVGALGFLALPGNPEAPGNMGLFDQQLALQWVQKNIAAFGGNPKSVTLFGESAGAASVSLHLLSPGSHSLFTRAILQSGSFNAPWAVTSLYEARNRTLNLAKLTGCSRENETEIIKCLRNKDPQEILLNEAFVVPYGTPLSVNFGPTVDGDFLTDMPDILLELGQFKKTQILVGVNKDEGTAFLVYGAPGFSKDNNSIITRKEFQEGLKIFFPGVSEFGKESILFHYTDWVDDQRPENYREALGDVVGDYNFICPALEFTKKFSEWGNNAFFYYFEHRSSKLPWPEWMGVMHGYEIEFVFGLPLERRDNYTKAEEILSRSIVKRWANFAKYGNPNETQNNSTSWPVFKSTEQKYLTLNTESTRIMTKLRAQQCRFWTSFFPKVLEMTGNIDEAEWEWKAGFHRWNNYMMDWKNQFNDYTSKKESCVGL"},
  "source": "paper PMC7956344",
  "about": "“Structure Elucidation and Cholinesterase Inhibition Activity of Two New Minor Amaryllidaceae Alkaloids” (Molecules, 2021)",
  "target": "human butyrylcholinesterase (hBuChE) (Homo sapiens, UniProt P06276)",
  "test": "hBuChE inhibition assay (modified Ellman method, BuTChI substrate)",
  "type": "biochemical",
  "details": "tested at 100 µM compound concentration",
  "data": [
    {"smiles": "CNC(=O)Oc1ccc2c(c1)[C@]1(C)CCN(C)[C@@H]1N2C", "note": "[eserine]", "values": [
      {"measurement": "% Inhibition hBuChE ± SEM", "result": "99.9 ± 0.5", "unit": "%"}
    ]}
  ]
}
